Literature values, collected in US11420922B2, “Hydroxylated tropolone inhibitors of nucleotidyl transferases in herpesvirus and Hepatitis B and uses therefor” (Saint Louis University, priority 2015, dated 2022).

Tested on: HBV
Conditions: human, in vivo; cited from earlier work

## Interferon α: FDA approved drug to treat chronic HBV
  patients with sustained clinical improvement: 20-30%
